Assay: Solubility of drugs in the adhesive compositions / patches
Details: grade A composition (Table 5)

Sol. type: Molecular
Compound: CCN(CC)CC(=O)Nc1c(C)cccc1C [Lidocaine]

— patent publication US11160764B2, “Drug delivery composition containing silyl polymers” (Medherant Limited, priority 2015, dated 2021)
